These are literature values, as cited in patent US20190382462A1, “METHODS AND COMPOSITIONS FOR TREATING HPA HYPERACTIVITY” (priority 2017, published 2019).

Protein sequences, listed by entry. Tags and fused reporters are not part of them. Residues count along the entry.
UniProt P55899, 24-297 limits assumed, species assumed: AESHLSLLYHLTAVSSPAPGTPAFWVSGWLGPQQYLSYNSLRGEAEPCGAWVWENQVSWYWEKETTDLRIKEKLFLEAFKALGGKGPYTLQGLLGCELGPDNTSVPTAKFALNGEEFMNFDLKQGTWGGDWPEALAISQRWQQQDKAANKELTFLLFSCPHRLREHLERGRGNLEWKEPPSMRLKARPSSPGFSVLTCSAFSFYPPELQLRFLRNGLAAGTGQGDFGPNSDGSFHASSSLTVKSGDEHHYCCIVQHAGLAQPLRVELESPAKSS

The data set deals with FcRn (Homo sapiens, UniProt P55899).

For “K573P mutant of HSA: modified recombinant HSA with improved FcRn binding”, the “affinity for FcRn relative to wild type HSA” value is 12 fold.
